Data from publication PMC5477544, “Structural and mechanistic basis of differentiated inhibitors of the acute pancreatitis target kynurenine-3-monooxygenase” (Nature Communications, 2017).
Where two headings read alike, the source gives them in different places.

Sequences of proteins named here, by UniProt entry; tags and fusion partners are left off. A change or cut given only in a name is not applied to a line headed by its entry.
UniProt O15229: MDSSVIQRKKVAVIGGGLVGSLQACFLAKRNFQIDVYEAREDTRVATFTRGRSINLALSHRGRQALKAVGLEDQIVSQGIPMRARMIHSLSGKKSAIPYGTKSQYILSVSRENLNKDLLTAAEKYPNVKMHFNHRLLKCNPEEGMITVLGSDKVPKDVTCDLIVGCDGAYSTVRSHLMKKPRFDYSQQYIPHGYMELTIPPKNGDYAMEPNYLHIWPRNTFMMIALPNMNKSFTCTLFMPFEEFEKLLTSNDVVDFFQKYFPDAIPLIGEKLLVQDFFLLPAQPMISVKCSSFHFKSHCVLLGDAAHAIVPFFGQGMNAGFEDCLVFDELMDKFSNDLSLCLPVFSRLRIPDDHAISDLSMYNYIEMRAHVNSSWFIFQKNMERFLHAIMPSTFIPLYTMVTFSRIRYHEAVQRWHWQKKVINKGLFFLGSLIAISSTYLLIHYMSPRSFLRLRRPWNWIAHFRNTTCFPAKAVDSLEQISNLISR

Biological target: T1, human KMO (Homo sapiens, UniProt O15229)
T1 construct: full-length human KMO was cloned as an N-terminal GST fusion; GST (N); made in house; host or cells: Sf9 insect cells, used as a membrane fraction
Test: Rapidfire mass spectrometry IC50 assay, isolated human KMO
Type: biochemical
Experimental: For the expression and isolation of human KMO membranes, full-length human KMO was cloned as an N-terminal GST fusion, expressed in Sf9 cells and isolated as a membrane fraction as described in Lowe et al.[12]
Inhibitor IC50 values against isolated human KMO were determined using a Rapidfire mass spectrometry assay as described in Lowe et al.[12] utilizing the Sf9 cell expressed human KMO described above. The inhibitor IC50 values against Pf-KMO were determined using an analogous Rapidfire mass spectrometry assay, utilizing the purified protein described above.

C[C@@H](Oc1cc2oc(=O)n(CCC(=O)O)c2cc1Cl)c1ccccn1 [GSK775]
IC50 (from inhibition curves of Fig. 3b, read-out: IC50 Human KMO): 2.7 nM
Effect of [L-Kyn] on IC50 (mode of inhibition) (human KMO): no dependence on [L-Kyn]
IC50 (human enzyme, mean of n determinations given in text, read-out: IC50 (mean potency, in vitro activity)): 2.5 nM
